Laboratory results as given in patent US5654422A, “Acylated γ-cyclodextrins” (priority 1994, dated 1997).

Key:
[1] = 1440 min

Acetyl-γ-CD (DS,0.95) [Ex. 3 Ac-gamma-CD(0.95)]
Water Solubility: > 70% | Solubilization of Hydrocortisone [1]: 52.5 mg/mL

Acetyl-γ-CD (DS, 0.83) [Ex. 2 Ac-gamma-CD(0.83)]
Water Solubility: 50.00% | Solubilization of Hydrocortisone [1]: 46.6 mg/mL

Acetyl-γ-CD (DS, 0.95) [Ex. 5 Ac-gamma-CD(0.95)]
Water Solubility: > 70% | Solubilization of Hydrocortisone [1]: 53.4 mg/mL

Acetyl-γCD (DS, 1.17) [Ex. 1 Ac-gamma-CD(1.17)]
Water Solubility: > 70% | Solubilization of Hydrocortisone [1]: 49.5 mg/mL

Methyl-γ-cyclodextrin (DS,1.8) [Me-gamma-CD(1.8)]
Solubilization of Hydrocortisone [1]: 39.6 mg/mL

hydroxypropyl-γ-cyclodextrin [Hp-gamma-CD(0.6)]
Solubilization of Hydrocortisone [1]: 41 mg/mL

hydroxypropyl-γ-cyclodextrin [Hp-gamma-CD(0.9)]
Solubilization of Hydrocortisone [1]: 28 mg/mL
